According to ChEMBL document CHEMBL1821707, “Improved synthesis of chiral pyrrolidine inhibitors and their binding properties to neuronal nitric oxide synthase” (J Med Chem, 2011):

Assays:
[1] = molecular target: T1, Nitric oxide synthase, inducible (Mus musculus, UniProt P29477); assay: Inhibition of mouse iNOS expressed in Escherichia coli assessed as reduction in formation of nitric oxide by hemoglobin capture assay
T1 sequence (P29477 whole entry): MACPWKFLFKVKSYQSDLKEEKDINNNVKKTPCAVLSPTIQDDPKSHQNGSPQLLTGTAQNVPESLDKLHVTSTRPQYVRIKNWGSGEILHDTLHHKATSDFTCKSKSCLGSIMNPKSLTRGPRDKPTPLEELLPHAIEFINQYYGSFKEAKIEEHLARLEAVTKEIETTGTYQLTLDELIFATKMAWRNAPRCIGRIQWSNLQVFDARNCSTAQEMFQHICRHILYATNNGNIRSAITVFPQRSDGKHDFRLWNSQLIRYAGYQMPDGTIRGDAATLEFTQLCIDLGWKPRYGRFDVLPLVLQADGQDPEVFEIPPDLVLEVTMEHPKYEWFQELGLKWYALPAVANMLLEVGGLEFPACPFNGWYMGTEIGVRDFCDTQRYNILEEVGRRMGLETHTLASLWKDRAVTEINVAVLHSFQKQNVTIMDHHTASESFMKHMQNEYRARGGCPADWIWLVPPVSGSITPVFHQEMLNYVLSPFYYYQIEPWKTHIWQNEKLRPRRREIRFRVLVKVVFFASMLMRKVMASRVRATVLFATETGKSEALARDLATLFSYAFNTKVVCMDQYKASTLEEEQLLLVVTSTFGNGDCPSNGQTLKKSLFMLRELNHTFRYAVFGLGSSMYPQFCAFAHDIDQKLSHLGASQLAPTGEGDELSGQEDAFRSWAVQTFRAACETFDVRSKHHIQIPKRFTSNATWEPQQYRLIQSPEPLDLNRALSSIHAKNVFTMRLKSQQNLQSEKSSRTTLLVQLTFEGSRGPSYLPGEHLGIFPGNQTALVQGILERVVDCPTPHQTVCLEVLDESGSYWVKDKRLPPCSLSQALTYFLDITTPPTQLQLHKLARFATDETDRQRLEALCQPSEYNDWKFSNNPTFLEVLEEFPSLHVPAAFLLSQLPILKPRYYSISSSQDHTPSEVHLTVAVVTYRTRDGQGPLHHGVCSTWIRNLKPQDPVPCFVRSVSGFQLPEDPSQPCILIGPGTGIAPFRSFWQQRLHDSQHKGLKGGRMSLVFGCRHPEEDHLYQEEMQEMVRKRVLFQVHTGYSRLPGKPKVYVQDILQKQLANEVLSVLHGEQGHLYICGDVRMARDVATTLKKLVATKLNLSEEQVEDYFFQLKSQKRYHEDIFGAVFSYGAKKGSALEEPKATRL
In short: (§1)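 Ki was calculated from directly measured IC50 values, with each IC50 measured at least in duplicate and standard deviations of ±10%.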

Nitric oxide synthase 3 = molecular target: T2, Nitric oxide synthase 3 (Bos taurus, UniProt P29473); assay: Inhibition of bovine eNOS expressed in Escherichia coli assessed as reduction in formation of nitric oxide by hemoglobin capture assay; in short: as §1
T2 sequence (P29473 whole entry): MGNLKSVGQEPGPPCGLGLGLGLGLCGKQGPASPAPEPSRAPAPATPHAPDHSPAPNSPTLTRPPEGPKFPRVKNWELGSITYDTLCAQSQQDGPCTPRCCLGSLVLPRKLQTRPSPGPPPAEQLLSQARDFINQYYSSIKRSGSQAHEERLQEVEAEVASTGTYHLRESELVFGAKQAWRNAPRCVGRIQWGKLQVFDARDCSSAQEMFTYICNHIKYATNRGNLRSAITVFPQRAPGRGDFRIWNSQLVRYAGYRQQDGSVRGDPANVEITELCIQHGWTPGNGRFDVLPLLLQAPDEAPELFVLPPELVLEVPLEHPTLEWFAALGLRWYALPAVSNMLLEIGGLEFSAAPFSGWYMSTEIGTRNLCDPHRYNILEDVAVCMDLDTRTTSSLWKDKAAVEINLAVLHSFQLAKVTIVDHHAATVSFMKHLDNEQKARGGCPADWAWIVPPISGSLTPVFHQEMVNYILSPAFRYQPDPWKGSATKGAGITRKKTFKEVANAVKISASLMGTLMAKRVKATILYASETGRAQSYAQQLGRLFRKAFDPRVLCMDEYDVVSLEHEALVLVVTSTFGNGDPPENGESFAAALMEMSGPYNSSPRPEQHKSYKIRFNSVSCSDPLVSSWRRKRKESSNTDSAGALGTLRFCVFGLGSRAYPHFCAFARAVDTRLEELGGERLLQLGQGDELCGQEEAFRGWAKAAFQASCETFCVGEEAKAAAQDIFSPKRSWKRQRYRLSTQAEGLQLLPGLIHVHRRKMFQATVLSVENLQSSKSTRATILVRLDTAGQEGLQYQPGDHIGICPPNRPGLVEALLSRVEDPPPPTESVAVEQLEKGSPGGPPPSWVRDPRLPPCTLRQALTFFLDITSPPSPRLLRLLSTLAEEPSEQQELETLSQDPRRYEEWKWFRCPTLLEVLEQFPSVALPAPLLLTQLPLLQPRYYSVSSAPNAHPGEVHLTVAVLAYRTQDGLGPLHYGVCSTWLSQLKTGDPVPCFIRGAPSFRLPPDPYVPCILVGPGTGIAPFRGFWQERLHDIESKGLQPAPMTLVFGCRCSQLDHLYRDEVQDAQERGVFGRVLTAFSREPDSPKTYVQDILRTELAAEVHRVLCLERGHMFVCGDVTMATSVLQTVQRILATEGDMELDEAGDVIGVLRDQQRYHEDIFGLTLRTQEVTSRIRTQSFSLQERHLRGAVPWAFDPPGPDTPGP

`Cc1cc(N)nc(C[C@@H]2CNC[C@@H]2OCCNCC(F)(F)c2cc(F)cc(Cl)c2)c1` showed a Ki [1] of 17 µM and a Ki (Nitric oxide synthase 3) of 17 µM.
